The entries are a selection whose mix differs from that of the whole data set. Results filed as inconclusive are left out. Calls of active or inactive are those of the source. Calls come from the whole dose curve; as a rule, active = well fitted activation curve with a large enough effect; inconclusive = small, poorly fitted or top-dose-only effect; inactive = no such curve, though single readings can be large or run the other way.
Experiment: qHTS Assay for Rab9 Promoter Activators; note: % of control where 0% means no effect; nearly all actives have a fitted effect of over 60% in size
Details: Huh7 Rab9 promoter-luciferase reporter, luminescence, 24 h; at 9.22 µM (top of the series)

| Structure (SMILES) | activation, negative = inhibition |
| --- | --- |
| Cc1ccccc1CN(C)C(=O)COC(=O)C(O)(c1ccccc1)c1ccccc1 | inactive: -2.34% |
